# Binding of CDR-mutated scFvs to a peptide of the spike HR2 region

Antigen: PDVDLGDISGINAS, a 14-residue peptide of the SARS-CoV-2 spike HR2 region.

Each scFv is VH, three GGGGS repeats, VL, as in the parent Ab-14, and differs from it in the CDRs of the light chain only.
VH: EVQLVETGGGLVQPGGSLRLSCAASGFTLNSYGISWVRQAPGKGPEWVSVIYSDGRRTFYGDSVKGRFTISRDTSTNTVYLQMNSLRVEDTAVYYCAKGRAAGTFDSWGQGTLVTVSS
VL: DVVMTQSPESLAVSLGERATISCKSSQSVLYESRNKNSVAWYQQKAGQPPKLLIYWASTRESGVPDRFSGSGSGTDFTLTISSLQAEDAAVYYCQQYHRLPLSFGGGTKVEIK

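Phage display of a naive human antibody library on the peptide gave the parent. Library AAYL50 holds single substitutions and randomly drawn double and triple substitutions in the CDRs. In AlphaSeq, yeast of one mating type display the scFv and yeast of the other type display the target. Mating (16 h, 30 °C) was followed by selection of diploids and sequencing of their barcodes. Read counts were normalised to the haploid input and turned into Kd by a linear fit to BCL2-family pairs of known affinity, for each replicate. There are three technical replicates.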

Each variant is given by its three light chain CDRs, as the data file delimits them; those of the parent are KSSQSVLYESRNKNSVA, WASTRES, QQYHRLPLS.
Numbers give log10(Kd / nM), so 0 is 1 nM and 3 is 1 µM. Smaller is tighter.
Where no diploid with the target was found in that replicate, the entry reads "ND": below detection, most likely a poor binder, though not proof of it.

CDR-L1	CDR-L2	CDR-L3	log10 Kd, replicates	control signals
YSSQFVLYESRNKNSVA	WASTRES	QQYMRLPLS	ND ND 2.47	0 of 9
KSSQSMLYESRNKVSVA	WASTREQ	QQYHRLPLS	2.14 1.77 2.01	0 of 9
QSSLSVLYESRNKNSVA	WASTDES	QQYHRLPLS	4.04 4.12 3.96	3 of 9 (3.91)
KSSQSVGYERRNKNSVA	WASGRES	QQYHRLPLS	3.38 5.45 4.56	3 of 9 (4.59)
TSSQSVLYESRKKNSVA	WASTRAS	QQYHRLPLS	1.53 1.47 1.49	4 of 9 (4.58)
MSHQSVLYESRNKNSVA	WASTREH	QQYHRLPLS	1.78 1.72 2.37	0 of 9
KSSQSVLYESRNKNSVA	WASTYES	QQYHRLPLS	4.29 ND 5.10	4 of 9 (4.76)
KSSQSVLYESRNKNSVC	WASTREM	QQYHRLPLS	4.29 2.47 3.38	0 of 9
KHSASVLYESRNKNSVA	WASTRES	QQYHRLPLT	1.37 1.53 1.57	7 of 9 (4.86)
KSSQSVLYESRNKNGVA	WASERES	QQYHRLPLS	1.20 1.35 1.08	2 of 9 (4.30)
KSSQSVLYESRNKWSVA	WASTRES	QQYARLRLS	ND ND ND	0 of 9
KSSQSVLYESRCKNSVP	WASTRES	QQYHRLPLM	3.88 4.36 ND	2 of 9 (4.11)
HSSQSVLYLSRNKNSVA	WASTRES	QQVHRLPLS	ND ND ND	0 of 9
KSSQSVLYESRNKNSVA	WASTRWY	QQYHRLPVS	1.64 1.63 2.16	0 of 9
KSSQNVLYESRNKNSVA	CASTRES	NQYHRLPLS	ND ND ND	0 of 9
KSSQSVLYCSRNHNSVA	WASTRES	QQNHRLPLS	2.86 2.72 2.62	3 of 9 (4.71)
KSSQSVLYDSRNRNWVA	WASTRES	QQYHRLPLS	ND ND ND	0 of 9
KSSQSVLYESRNKNSVA	WAFTDES	QQYHRLPLH	ND ND ND	2 of 9 (2.84)
KSSQSVLYESRNKNSVA	WAYTRES	QEYHRMPLS	4.07 3.60 3.56	0 of 9
KSSQSVLYESRNHNSVA	WASTRES	QQYHRLPLS	1.13 1.28 0.93	1 of 9 (3.08)
KSSQSVLYTSRNKTSVA	WASTRES	QQVHRLPLS	ND ND ND	1 of 9 (3.07)
KSSASVLYESRIKNSVA	WAGTRES	QQYHRLPLS	2.05 ND 3.78	0 of 9
KSSQSVLYESSNKNSVA	WASTRES	QQWHRLPLS	0.97 0.90 0.96	1 of 9 (5.21)
KHSQSVLYESRNKNSVR	WACTRES	QQYHRLPLS	3.09 ND ND	1 of 9 (4.52)
KSSQSVLYESRNKNSGA	WAPTRES	QCYHRLPLS	6.29 4.11 ND	4 of 9 (4.07)
KSSQSVLYESHYKNSVA	WASTGES	QQYHRLPLS	ND ND 4.59	0 of 9
KSSQSVLYESRNKNSVG	WASTRES	QQYHRAPLI	ND ND ND	0 of 9
KSSQSVLYESRNKNLVA	WFSTRES	QQYHRLPLS	5.75 4.13 ND	1 of 9 (4.73)
KSVQSVLYESRNKNSVA	WASTRRS	QQYHRLPLS	ND ND ND	0 of 9
KSSQVVLYESRNKNRVA	WASPRES	QQYHRLPLS	4.40 5.09 ND	2 of 9 (4.86)
KMSQSVLYPNRNKNSVA	WASTRES	QQYHRLPLS	-0.09 0.18 0.07	1 of 9 (3.24)
KSSQSVLYESRNKNSGA	WASTRFS	QQYSRLPLS	ND ND ND	0 of 9
KSSQSVLYESRNKNSVA	WASTREI	QLYHRLPLS	1.44 1.27 0.93	1 of 9 (1.16)
KSSQSVPYESRNKNSVA	WASTRES	QQYGFLPLS	1.42 2.04 1.92	0 of 9
KSSQSVLYESRNKNSVA	WASTKVS	QQYHRAPLS	ND ND ND	0 of 9
KSSQLVLYESRNKVSVA	WASTRES	QQYHRGPLS	ND ND ND	1 of 9 (4.67)
KSSQSALYESRNKNSVA	WANTRES	QQAHRLPLS	ND ND ND	0 of 9
KSPQSVLYESKNKNSVA	WRSTRES	QQYHRLPLS	3.04 2.44 2.98	0 of 9
YSSQSVLYESRNALSVA	WASTRES	QQYHRLPLS	2.86 2.88 5.46	0 of 9
KSSQSVLYESRNKNSVA	WESTRNS	QQYSRLPLS	1.24 1.84 1.65	0 of 9
KSSQGVLIESRNKNSVA	WASTRES	QQYHRLPPS	4.58 4.38 5.01	4 of 9 (4.19)
KSSQSVLPESRNKNSVA	WASTRES	QQYVRLPFS	1.17 1.31 1.37	1 of 9 (3.29)
KSSQSVLYESRNKNSVA	WASEREK	QQGHRLPLS	4.27 3.62 3.74	3 of 9 (5.17)
KSSQAELYYSRNKNSVA	WASTRES	QQYHRLPLS	1.54 1.58 1.61	3 of 9 (4.03)
KSSMSVLYESRNKNSVA	WLSTRES	QQYHRLPYS	ND ND ND	2 of 9 (3.26)

Repeated from above, the 3 best binders with a signal in all replicates:

{"CDR-L1": "KMSQSVLYPNRNKNSVA", "CDR-L2": "WASTRES", "CDR-L3": "QQYHRLPLS", "log10 Kd, replicates": "-0.09 0.18 0.07", "control signals": "1 of 9 (3.24)"}
{"CDR-L1": "KSSQSVLYESSNKNSVA", "CDR-L2": "WASTRES", "CDR-L3": "QQWHRLPLS", "log10 Kd, replicates": "0.97 0.90 0.96", "control signals": "1 of 9 (5.21)"}
{"CDR-L1": "KSSQSVLYESRNHNSVA", "CDR-L2": "WASTRES", "CDR-L3": "QQYHRLPLS", "log10 Kd, replicates": "1.13 1.28 0.93", "control signals": "1 of 9 (3.08)"}

Nonspecific signal, from three strains lacking the peptide, appeared in 18% of pairings of library AAYL50, centred on 4.19 (5% of these signals below 2.99); values are not corrected for it. Also given: how often the same scFv was detected with the empty control strains, with their mean in brackets.

Values reported by Engelhart et al. 2022, doi:10.1038/s41597-022-01779-4 (FLAb copy).